The values that follow are results of earlier work, collected in patent US12023174B2, “Detecting cyanide exposure based on thiocyanate measurement in saliva” (dated 2024).

Read-outs that look alike come from different tables or passages of the source.

For series [1] the following is noted: in vivo.

The half-life is how long it takes for the measured level to halve. Turning to thiocyanate, the half-life in series [1] is 140 to 336 h.
For the compound `[C-]#[O+]`, the “mean blood carbon monoxide concentration” value was 1.5±1.7 mmol per liter (all 109 fire victims), 2.8±2.0 mmol per liter (fire victims who died) and 0.7±0.7 mmol per liter (fire victims who survived).
